Here are results for 1 molecule from US20030077806A1.

Sequences of proteins named here, by UniProt entry; tags and fusion partners are left off. A change or cut given only in a name is not applied to a line headed by its entry. Residues count along the entry.
mannose-6-phosphate (M6P) receptor on human cells (Fabry patient skin fibroblasts, HUVECs) (human), P11717, UniProt P11717, 41-2491: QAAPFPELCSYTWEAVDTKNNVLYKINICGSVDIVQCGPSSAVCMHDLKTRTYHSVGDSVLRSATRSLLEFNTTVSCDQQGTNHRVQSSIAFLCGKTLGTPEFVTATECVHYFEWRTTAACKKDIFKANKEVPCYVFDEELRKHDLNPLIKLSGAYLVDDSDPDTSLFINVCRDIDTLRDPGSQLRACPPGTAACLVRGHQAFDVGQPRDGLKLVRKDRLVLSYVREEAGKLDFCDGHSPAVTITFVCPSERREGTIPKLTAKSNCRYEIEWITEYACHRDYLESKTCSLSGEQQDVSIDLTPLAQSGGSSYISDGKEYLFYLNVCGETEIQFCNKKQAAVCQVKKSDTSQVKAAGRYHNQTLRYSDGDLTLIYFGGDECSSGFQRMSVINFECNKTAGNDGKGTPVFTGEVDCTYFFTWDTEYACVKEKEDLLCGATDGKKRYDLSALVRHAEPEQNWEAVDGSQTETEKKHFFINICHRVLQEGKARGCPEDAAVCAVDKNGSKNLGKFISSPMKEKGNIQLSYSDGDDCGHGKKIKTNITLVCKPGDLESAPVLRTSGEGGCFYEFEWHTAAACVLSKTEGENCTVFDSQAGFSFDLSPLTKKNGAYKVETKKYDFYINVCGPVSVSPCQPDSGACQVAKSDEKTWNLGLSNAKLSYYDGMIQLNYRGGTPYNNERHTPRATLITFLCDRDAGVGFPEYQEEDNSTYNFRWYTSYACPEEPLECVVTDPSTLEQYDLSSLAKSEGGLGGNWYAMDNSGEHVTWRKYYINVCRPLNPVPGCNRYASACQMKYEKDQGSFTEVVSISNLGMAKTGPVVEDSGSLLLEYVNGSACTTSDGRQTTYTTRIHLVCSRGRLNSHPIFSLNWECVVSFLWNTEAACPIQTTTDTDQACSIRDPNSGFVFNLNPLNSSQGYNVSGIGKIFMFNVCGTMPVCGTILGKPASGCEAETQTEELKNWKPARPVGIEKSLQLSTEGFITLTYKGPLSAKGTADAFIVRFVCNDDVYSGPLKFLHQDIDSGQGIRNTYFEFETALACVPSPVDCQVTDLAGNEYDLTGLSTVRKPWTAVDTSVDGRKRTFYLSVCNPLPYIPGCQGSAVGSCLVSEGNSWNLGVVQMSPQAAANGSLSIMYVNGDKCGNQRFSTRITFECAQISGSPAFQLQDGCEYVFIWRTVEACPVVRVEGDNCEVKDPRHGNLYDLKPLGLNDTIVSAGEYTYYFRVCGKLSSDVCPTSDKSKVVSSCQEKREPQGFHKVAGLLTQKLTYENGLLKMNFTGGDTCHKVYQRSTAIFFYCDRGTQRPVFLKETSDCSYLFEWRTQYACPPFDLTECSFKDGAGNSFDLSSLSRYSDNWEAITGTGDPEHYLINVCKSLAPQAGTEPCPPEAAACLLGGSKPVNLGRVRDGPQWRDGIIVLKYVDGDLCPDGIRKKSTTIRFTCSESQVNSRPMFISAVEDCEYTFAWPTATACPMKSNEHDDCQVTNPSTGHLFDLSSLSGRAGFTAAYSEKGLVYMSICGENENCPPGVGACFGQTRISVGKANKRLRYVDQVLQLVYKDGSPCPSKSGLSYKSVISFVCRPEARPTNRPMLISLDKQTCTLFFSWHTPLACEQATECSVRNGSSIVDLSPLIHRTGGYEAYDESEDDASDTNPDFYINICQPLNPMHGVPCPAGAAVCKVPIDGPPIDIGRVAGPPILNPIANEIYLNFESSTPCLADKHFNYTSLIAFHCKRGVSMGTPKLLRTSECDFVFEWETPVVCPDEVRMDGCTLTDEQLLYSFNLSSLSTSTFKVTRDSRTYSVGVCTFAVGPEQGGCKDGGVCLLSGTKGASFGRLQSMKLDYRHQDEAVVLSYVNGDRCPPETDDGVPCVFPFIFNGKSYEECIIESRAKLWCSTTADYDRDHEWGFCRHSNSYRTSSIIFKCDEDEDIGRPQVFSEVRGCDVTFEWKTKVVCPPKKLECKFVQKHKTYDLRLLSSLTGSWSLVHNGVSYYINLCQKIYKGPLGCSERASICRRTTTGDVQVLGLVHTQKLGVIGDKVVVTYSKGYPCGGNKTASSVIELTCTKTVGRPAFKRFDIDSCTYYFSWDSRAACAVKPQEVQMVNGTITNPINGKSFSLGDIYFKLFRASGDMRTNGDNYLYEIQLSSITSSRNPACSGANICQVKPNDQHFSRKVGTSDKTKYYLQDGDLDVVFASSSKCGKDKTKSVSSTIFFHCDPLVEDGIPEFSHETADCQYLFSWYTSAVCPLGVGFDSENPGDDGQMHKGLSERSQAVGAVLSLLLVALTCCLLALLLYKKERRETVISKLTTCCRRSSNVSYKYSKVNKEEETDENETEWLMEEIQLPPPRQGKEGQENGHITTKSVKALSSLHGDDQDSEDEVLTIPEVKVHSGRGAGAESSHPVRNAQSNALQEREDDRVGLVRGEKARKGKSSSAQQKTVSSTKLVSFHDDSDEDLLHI

For this assay, the target named is mannose-6-phosphate (M6P) receptor on human cells (Fabry patient skin fibroblasts, HUVECs) (human), P11717. Nature of the assay: cell-based or functional assay.

B1: human α-galactosidase A (α-Gal A), purified from or secreted by stably transfected human fibroblasts (pXAG-16; e.g. strain BRS-11), P06280 32-429 (enzyme)
chain: LDNGLARTPTMGWLHWERFMCNLDCQEEPDSCISEKLFMEMAELMVSEGWKDAGYEYLCIDDCWMAPQRDSEGRLQADPQRFPHGIRQLANYVHSKGLKLGIYADVGNKTCAGFPGSFGYYDIDAQTFADWGVDLLKFDGCYCDSLENLADGYKHMSLALNRTGRSIVYSCEWPLYMWPFQKPNYTEIRQYCNHWRNFADIDDSWKSIKSILDWTSFNQERIVDVAGPGGWNDPDMLVIGNFGLSWNQQVTQMALWAIMAAPLFMSNDLRHISPQAKALLQDKDVIAINQDPLGKQGYQLRQGDNFEVWERPLSGLAWAVAMINRQEIGGPRSYTIAVASLGKGVACNPACFITQLLPVKRKLGFYEWTSRLRSHINPTGTVLLQLENTMQMSLKDLL
modifications: here or on the partner: N-linked oligosaccharides bearing sialic acid and mannose-6-phosphate (M6P) residues; sites not numbered
For the molecule B1, the intracellular α-Gal A activity in Fabry fibroblasts co-cultured with BRS-11 insert + M6P, Day 1 (units/mg total protein) stood at 4; the intracellular α-Gal A activity in Fabry fibroblasts co-cultured with BRS-11 insert + M6P, Day 2 (units/mg total protein) was 6; the intracellular α-Gal A activity in Fabry fibroblasts co-cultured with BRS-11 insert + M6P, Day 3 (units/mg total protein) is 9; the intracellular α-Gal A activity in Fabry fibroblasts co-cultured with BRS-11 insert, Day 1 (units/mg total protein) is 13. Further, the intracellular α-Gal A activity in Fabry fibroblasts co-cultured with BRS-11 insert, Day 2 (units/mg total protein) is 40; the intracellular α-Gal A activity in Fabry fibroblasts co-cultured with BRS-11 insert, Day 3 (units/mg total protein) was 85; the intracellular α-Gal A enzyme level in HUVECs cultured overnight with 7500 units of α-Gal A, against control cells turned out to be 10 fold.
